The values that follow come from publication doi:10.1101/798769 (bioRxiv, 2019).

The target of this assay is T1, NANP 5.5-mer peptide, NP(NANP)5 (Plasmodium falciparum).
T1 chain: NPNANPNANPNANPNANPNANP
In words: SPR.

B1: mAb 317 (recombinant human IgG1, kappa) (antibody, V domains shown)
VH: QMQLVESGGGVVQPGRSLRLSCTASGFTFSTYAMHWVRQSPGQGLQWVAVISYHSTNKYYEDSVRGRFTISRDNSKNTLYLQMNSLRAEDTAVYYCARDGYSSSFFDFWGQGTLVTVSS
VL: DIQMTQSPSTLSASVGDRVAITCRASQSISRWLAWYQQQPGKAPKLLMSGASVLESGVPSRFSGSGSGTEFTLTISSLQPDDFATYYCQHYNSYFVTFGQGTKVEIK
The term Kd denotes a measure of binding affinity in units of concentration. A lower Kd goes with a tighter complex. The molecule B1 yielded an equilibrium dissociation constant (Kd) of less than 100 pM.
